Measured values published in patent US12617776B2, “Stable salt and crystal forms of 2-[3-({1-[2-(dimethylamino)ethyl]-2-(2,2-dimethylpropyl)-1H-1,3-benzodiazol-5-yl}sulfonyl)azetidin-1-yl]ethan-1-ol” (priority 2020, dated 2026).
“Also recorded” adds a separate entry of the source. Counter-ions that a name gives are not always drawn. Like-named read-outs stand apart in the source and are kept apart here.

Legend:
[1] = water activity experiment
[2] = for XRPD: interconversion (competitive) slurry of Pattern 2 in THF
[3] = 7 days
[4] = temperature cycled
Method: The aliquot volumes were typically 25-100 μL.
From the infrared (IR) transmission data of the sample vials, dissolution and precipitation events were recorded as the point of complete transmission of IR and the onset of turbidity by IR respectively.
Samples were held at ambient temperature for 18 hours to maximize the chance of precipitation. Any recoverable solids were analyzed by XRPD.

[5] = not given; remark: listed apart in the source
[6] = 7 days at 25° C./60% RH, 40° C./75% RH and 70° C./75% RH
[7] = Thermal stability by TG/DTA; type: physicochemical; conditions: 10° C./minute under nitrogen
[8] = EtOH/water (68/32), Aw 0.8, seeds Patterns 1, 2, 3 and 4, sample TW-0012E-020-04
[9] = EtOH/water (86/14), Aw 0.6, seeds Patterns 1, 2, 3 and 4, sample TW-0012E-020-03
[10] = EtOH/water (97/3), Aw 0.2, seeds Patterns 1, 2, 3 and 4, sample TW-0012E-020-01
[11] = 5° C., seeds Patterns 1, 2, 3 and 4, sample TW-0012E-019-01
[12] = 25° C., seeds Patterns 1, 2, 3 and 4, sample TW-0012E-019-02
[13] = 50° C., seeds Patterns 1, 2, 3 and 4, sample TW-0012E-019-03

SMILES: CN(C)CCn1c(CC(C)(C)C)nc2cc(S(=O)(=O)C3CN(CCO)C3)ccc21 [AAT-730 HCl salt Pattern 2]
- XRPD [1, 8]: Pattern 1
- XRPD [1, 9]: Pattern 1
- XRPD [1, 10]: Pattern 2
- thermodynamic stability in interconversion slurries ([2]; THF (anhydrous solvent), seeded with Patterns 1, 2, 3 and 4, 5 to 50° C., up to 10 days): most stable form; also recorded: stable form
- XRPD [2, 11]: Pattern 2
- XRPD [2, 12]: Pattern 2
- XRPD [2, 13]: Pattern 2
- XRPD ([3]; HCl salt input Pattern 2, 25° C./60% RH, sample TW0012E-021-01): Pattern 2
- XRPD ([3]; HCl salt input Pattern 2, 40° C./75% RH, sample TW0012E-021-02): Pattern 2
- XRPD ([3]; HCl salt input Pattern 2, 70° C./75% RH, sample TW0012E-021-03): Pattern 2

SMILES: CN(C)CCn1c(CC(C)(C)C)nc2cc(S(=O)(=O)C3CN(CCO)C3)ccc21 [AAT-730 HCl salt, HCl salt of 2-[3-({1-[2-(dimethylamino)ethyl]-2-(2,2-dimethylpropyl)-1H-1,3-benzodiazol-5-yl}sulfonyl)azetidin-1-yl]ethan-1-ol]
- XRPD (HCl salt, crash precipitation, water, anti-solvent ACN, sample TW-0012E-009-02): Amorphous
- XRPD (HCl salt, crash precipitation, water, anti-solvent IPA, sample TW-0012E-009-05): Pattern 3
- XRPD (HCl salt, crash precipitation, water, anti-solvent MeOH, sample TW-0012E-009-04): Pattern 4
- XRPD (HCl salt, crash precipitation, water, anti-solvent THF, sample TW-0012E-009-06): Amorphous
- XRPD (HCl salt, slow cooling, MeOH, sample TW-0012E-016-01): Pattern 1
- XRPD (HCl salt, slow cooling, THF/water (13/1, Aw at most 0.9), sample TW-0012E-016-03): Pattern 1
- XRPD (HCl salt, slow evaporation, DMSO/water (80/20, Aw at most 0.27), sample TW-0012E-008-02): Pattern 3 + 2
- XRPD (HCl salt, slow evaporation, EtOH/water (50/50), sample TW-0012E-008-03): Pattern 4
- XRPD (HCl salt, slow evaporation, water, sample TW-0012E-008-01): amorphous
- XRPD (HCl salt, sonication of paste, ACN, sample TW-0012E-010-02): Pattern 2
- XRPD (HCl salt, sonication of paste, DCM, sample TW-0012E-010-03): Pattern 2
- XRPD (HCl salt, sonication of paste, EtOH, sample TW-0012E-010-04): Pattern 2
- XRPD (HCl salt, sonication of paste, MeOH, sample TW-0012E-010-08): Pattern 1
- XRPD (HCl salt, sonication of paste, THF, sample TW-0012E-010-05): Pattern 2
- XRPD (HCl salt, sonication of paste, acetone, sample TW-0012E-010-01): Pattern 2
- XRPD (HCl salt, sonication of paste, acetone/water (20/1, Aw at most 0.6), sample TW-0012E-010-07): Pattern 1
- XRPD (HCl salt, temperature cycling, 1-Butanol, sample TW-0012E-015-01): Pattern 2
- XRPD (HCl salt, temperature cycling, ACN, sample TW-0012E-003-02): Pattern 1
- XRPD (HCl salt, temperature cycling, DIPE, sample TW-0012E-015-03): Pattern 2
- XRPD (HCl salt, temperature cycling, DMAc, sample TW-0012E-015-04): Pattern 2
- XRPD (HCl salt, temperature cycling, Dioxane, sample TW-0012E-015-09): Pattern 2
- XRPD (HCl salt, temperature cycling, EtOH, sample TW-0012E-003-04): Pattern 1
- XRPD (HCl salt, temperature cycling, EtOH/water (50/50), sample TW-0012E-003-08): Pattern 1
- XRPD (HCl salt, temperature cycling, IPA, sample TW-0012E-015-08): Pattern 2
- XRPD (HCl salt, temperature cycling, MEK, sample TW-0012E-015-05): Pattern 2
- XRPD (HCl salt, temperature cycling, MIBK, sample TW-0012E-015-06): Pattern 2
- XRPD (HCl salt, temperature cycling, THF, sample TW-0012E-003-05): Pattern 1
- XRPD (HCl salt, temperature cycling, THF/water (13/1, Aw at most 0.9), sample TW-0012E-003-07): Pattern 1
- XRPD (HCl salt, temperature cycling, acetone, sample TW-0012E-003-01): Pattern 1
- XRPD (HCl salt, temperature cycling, acetone/water (20/1, Aw at most 0.6), sample TW-0012E-003-06): Pattern 1
- XRPD (HCl salt, temperature cycling, cyclohexane, sample TW-0012E-015-02): Pattern 2
- XRPD (HCl salt, temperature cycling, heptane, sample TW-0012E-015-12): Pattern 2
- XRPD (HCl salt, temperature cycling, i-PrOAc, sample TW-0012E-015-10): Pattern 2
- XRPD (HCl salt, temperature cycling, toluene, sample TW-0012E-015-11): Pattern 2
- XRPD (salt formation in THF, input Lot No. 33-13, sample TW0012E-002-01): Pattern 1
- XRPD (salt formation in THF, input amorphous, sample TW0012E-001-01): Pattern 1
- XRPD [1, 8]: Pattern 1
- XRPD [1, 9]: Pattern 1
- XRPD [1, 10]: Pattern 2
- T dissolution ([4]; THF/water (13/1, Aw at most 0.9)): 38 °C
- T dissolution ([4]; methanol): 40 °C
- XRPD [2, 11]: Pattern 2
- XRPD [2, 12]: Pattern 2
- XRPD [2, 13]: Pattern 2
- result of heating and quenching ([5]; heated to 200° C. under N2, immersed in ice/water bath): degraded
- result of heating and quenching ([5]; heated up to 180° C. under N2, immersed in ice/water bath): degraded
- XRPD analysis of post-stressed samples (physical form) [6]: No change in physical form
- remains thermally stable up to [7]: up to 220 °C

SMILES: CN(C)CCn1c(CC(C)(C)C)nc2cc(S(=O)(=O)C3CN(CCO)C3)ccc21 [AAT-730, 2-[3-({1-[2-(dimethylamino)ethyl]-2-(2,2-dimethylpropyl)-1H-1,3-benzodiazol-5-yl}sulfonyl)azetidin-1-yl]ethan-1-ol]
- remains thermally stable up to [7]: up to 250 °C
